Measurements as given in US7923230 (Stanford University, dated 2011).

Molecular target: Amyloid beta (1-42)
Experiment: cell-based or functional assay

IC50 in thioflavin T aggregation assay, fold lower than CR/FKBP: ~5 fold
IC50 of SLF-CR (with 1 uM FKBP) for delaying Aβ aggregation, turbidity / light scattering: 430 nM
B1: FKBP12 pre-incubated with the bifunctional compound SLF-CR (SLF-Congo red) (enzyme)
chain: not shown
EC50 for preventing Aβ neurotoxicity, MTT assay on rat hippocampal neurons (drug concentration): 900 nM
